## Apparent affinities of Ab-95 variants for a coronavirus HR2 peptide

Values reported by Engelhart et al. 2022, doi:10.1038/s41597-022-01779-4 (FLAb copy).

The target is the same throughout: PDVDLGDISGINAS, from the HR2 region of SARS-CoV-2 spike.

The variants keep the heavy chain, the linker and the frameworks of Ab-95 (scFv order VH, three GGGGS repeats, VL).
VH: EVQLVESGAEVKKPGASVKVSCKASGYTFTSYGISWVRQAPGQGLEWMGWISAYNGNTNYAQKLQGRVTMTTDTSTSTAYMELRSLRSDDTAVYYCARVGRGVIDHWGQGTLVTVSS
VL: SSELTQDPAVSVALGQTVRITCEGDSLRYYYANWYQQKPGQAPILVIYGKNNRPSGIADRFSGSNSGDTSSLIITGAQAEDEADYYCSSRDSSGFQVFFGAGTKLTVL

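Library AAYL52 holds single substitutions and randomly drawn double and triple substitutions in the CDRs. Affinity was read by AlphaSeq, a pooled yeast mating assay with surface-displayed partners. Binding brings cells together so that they mate, and sequencing counts the barcode pairs among the diploids. Scores were corrected for input abundance and mapped to Kd with protein pairs of known affinity run in the same pool. There are three technical replicates.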

Variants are written as CDR1, CDR2 and CDR3 of the light chain (limits as in the source). Parent: EGDSLRYYYAN, GKNNRPS, SSRDSSGFQVF.
All variants listed here change D25 of the VL, counted from its first residue.
Values are log10 of the apparent Kd in nM; lower means stronger binding.
The mean shown is taken over the replicates in which the pair was detected.
"not detected" marks a missing value. The strain was present, yet no cells mated with the target were sequenced in any replicate, which points to weak or no binding.
Background: pairings of library AAYL52 with three empty control strains gave a value in 28% of cases (median 3.91, 5th percentile 2.90). Values in that range, when seen in few replicates, are hard to tell from nonspecific mating.

CDR-L1	CDR-L2	CDR-L3	log10 Kd (nM), mean	replicates with signal
EGCSLRYYYAN	GKNNRPS	SSRDSSGWQYF	not detected	0 of 3
EGPVLRYYYAN	GKNNRPS	DSRDSSGFQVF	5.60	1 of 3
EGTKLRYYYAN	GKNNRPS	SSRDSSGFQVF	3.30	1 of 3
EGPSLRYYYAN	GKVNRPS	SSRDSSGFHVF	4.56	1 of 3
EGESLRYYYAN	GKNNRPS	SSIDSSGFQVF	3.06	3 of 3
EGASDRYYYAN	GKNNRPS	SSRDSSGQQVF	3.02	1 of 3
EGHSSRYYYAN	GKNNRPS	SSRDSSGFTVF	4.34	2 of 3
EGASQRYYGAN	GKNNRPS	SSRDSSGFQVF	1.18	3 of 3
EGISLRYYYAN	GFNNRIS	SSRDSSGFQVF	not detected	0 of 3
EGRSLRYTYAV	GKNNRPS	SSRDSSGFQVF	4.37	3 of 3
EGSSLRYYYAN	GKNNRTS	SSRDSSGFQVF	2.71	3 of 3
ELSSQRYYYAN	GKNNRPS	SSRDSSGFQVF	2.54	3 of 3
EGLSLRYYYAN	YKNNRPS	SKRDSSGFQVF	4.24	2 of 3
EGVSLRYYYAN	GKNNRDS	SSRDVSGFQVF	3.12	2 of 3
EGASLRYYYAN	GKNARPS	SSRPSSGFQVF	2.37	3 of 3
EGQSLRYYYAF	GKNNRPS	SYRDSSGFQVF	5.19	1 of 3
EGYSLRYYYKN	GKNNRPS	SSRDSSGFQRF	3.10	3 of 3
TGNCLRYYYAN	GKNNRPS	SSRDSSGFQVF	3.91	2 of 3
EGTSLRYYYAN	GKNNQPS	SSRDSSGFQVF	2.68	3 of 3
EGKSLRYYYAN	GKNNRPS	SSRDSTPFQVF	3.88	2 of 3
EGASLRYYYAN	GKNNRPK	SSRDSSGFQGF	not detected	0 of 3
EGNSPRYYYAN	GKNNRPS	SSRDSDGFQVF	4.81	2 of 3
EGNSLRYYYAN	GKNNRPS	SSRDSSGFQVF	2.20	3 of 3
EGHRLRYYYAN	GKNPRPS	SSRDSSGFQVF	4.53	2 of 3
WGMSLRYYYAN	GKNNRPS	SSRDSSGFQVF	2.73	3 of 3
EFQSLRYYYAN	GKNNRPS	SSRDSSGFQVF	3.07	3 of 3
EGPSLRYYYAN	LKNNRPS	SSRNSSGFQVF	not detected	0 of 3
EGVSLRYYYAN	GKNNRPS	SSRHSSGFQVF	3.79	2 of 3
EGWILRYYYAN	GKNNRPS	SSRDSSGFQVM	3.50	2 of 3
EGKSLRYYYAN	KKNNRPS	SLRDSSGFQVF	4.51	1 of 3
EGSSLRYYYAW	GINNRPS	SSRDSSGFQVF	3.02	1 of 3
VGGSLRYYYAN	GKNNRPS	SSRDSSGFQVF	2.64	3 of 3
EGRSLNYYYAN	GKNNRPS	SSRDSSGFSVF	2.88	3 of 3
EGGSLRYYYWN	GANNRPS	SSRDSSGFQVF	4.11	2 of 3
EGYSLRYYYAN	GSNNRPS	SIRDSSGFQVF	2.88	3 of 3
EGVSLRYYHAN	GHNNRPS	SSRDSSGFQVF	1.59	3 of 3
EGTSLRYYYAG	GKNNRPS	SSRDSSPFQVF	3.64	2 of 3
EGRSLRYYYAN	GKNNRAS	MSRDSSGFQVF	1.36	3 of 3
EGLSLRYYYAN	AKNNRPS	SSRDSSGFQVF	not detected	0 of 3
EGAMLRYYYAN	GKNDRPS	SSRDSSGFQVF	3.41	2 of 3
EGCSLRYYYAN	GKNNRPS	SSRDSIGFQVF	5.14	1 of 3
ECESLRYYYAN	GKNNRPS	SSIDSSGFQVF	3.16	3 of 3
EGISLRYYYNN	GKNGRPS	SSRDSSGFQVF	4.94	2 of 3
EYHSLRYYYAN	GKNIRPS	SSRDSSGFQVF	4.13	3 of 3
EGTSLRYYCAN	YKNNRPS	SSRDSSGFQVF	3.64	2 of 3
EGKSLRYYYAN	GKNNRPG	SVRDSSGFQVF	2.44	3 of 3
EGVSLRYYYAN	GKNNRHS	RSRDSSGFQVF	3.44	3 of 3
EGKSLRPYYAN	GKNERPS	SSRDSSGFQVF	1.83	3 of 3
EGWSLRYYYAN	IKNNRPS	SSVDSSGFQVF	5.09	2 of 3
EGWSLRYYYAN	GKNNRPS	SSRDSSNQQVF	2.77	3 of 3
EGNSLRYYYAN	GKNNRPS	SSRDSSCFQDF	3.98	3 of 3
EGCSLRYYYAN	GKNNKPS	SSRDSSGFQVA	not detected	0 of 3
EGYSLRYYYAN	GKNNRPS	SSRDTSGFQVF	2.07	3 of 3
EGHSLRYYYAN	GKNNRPS	SLRDSSSFQVF	4.28	1 of 3
EGNSLRYYYAN	CVNNRPS	SSRDSSGFQVF	4.19	1 of 3
EGCSLRRYYAP	GKNNRPS	SSRDSSGFQVF	1.90	3 of 3
EGCSLRYYYAN	DKNNAPS	SSRDSSGFQVF	4.11	2 of 3
EYISLRYYYAN	GKNNCPS	SSRDSSGFQVF	4.29	1 of 3
EGESLRYYYAN	GKNNRPS	SSGDSSGFQVC	2.18	3 of 3
HGCSLRYYYAN	GKNNRPS	SSRASSGFQVF	3.52	1 of 3
EGGSTCYYYAN	GKNNRPS	SSRDSSGFQVF	3.75	2 of 3
EGGSLRYYYAN	GKNQRPS	SSRDNSGFQVF	2.79	3 of 3
EGANLRYYYAN	GKNNRPS	SLRDSSGFQVF	not detected	0 of 3
EGKSLRYYYAN	GKNNRPS	SNRQSSGFQVF	not detected	0 of 3
NGLSLRYYYAN	GKNNRPT	SSRDSSGFQVF	2.97	3 of 3
EGYSLRYYYAN	GKNNRPS	SSRDSSGFQHF	2.57	2 of 3
EMSSLRYYYAN	GKNNRPS	SSYDSSGFQVF	4.58	2 of 3
EGISLRYYYAN	GKNNRPS	SSNDPSGFQVF	3.18	1 of 3
EGYSLRYYYAN	GKNNRPS	SVRGSSGFQVF	2.94	3 of 3
EHPSLRYYYAG	GKNNRPS	SSRDSSGFQVF	4.36	2 of 3
TGWSLRYYYAN	WKNNRPS	SSRDSSGFQVF	4.65	3 of 3
EGESLRYYYAW	GKNNRPS	SSRDSSGFFVF	4.25	1 of 3
EGWSARYYYAN	AKNNRPS	SSRDSSGFQVF	4.15	2 of 3
EGQSLRYYYAN	GQNNFPS	SSRDSSGFQVF	3.83	3 of 3

A selection of 12 entries from above:

CDR-L1,CDR-L2,CDR-L3,"log10 Kd (nM), mean",replicates with signal
EGISLRYYYAN,GFNNRIS,SSRDSSGFQVF,not detected,0 of 3
EGESLRYYYAN,GKNNRPS,SSGDSSGFQVC,2.18,3 of 3
EGCSLRYYYAN,GKNNKPS,SSRDSSGFQVA,not detected,0 of 3
EGSSLRYYYAN,GKNNRTS,SSRDSSGFQVF,2.71,3 of 3
EGRSLRYTYAV,GKNNRPS,SSRDSSGFQVF,4.37,3 of 3
EGGSLRYYYWN,GANNRPS,SSRDSSGFQVF,4.11,2 of 3
EGHRLRYYYAN,GKNPRPS,SSRDSSGFQVF,4.53,2 of 3
EGTSLRYYYAN,GKNNQPS,SSRDSSGFQVF,2.68,3 of 3
EGTKLRYYYAN,GKNNRPS,SSRDSSGFQVF,3.30,1 of 3
WGMSLRYYYAN,GKNNRPS,SSRDSSGFQVF,2.73,3 of 3
EGISLRYYYAN,GKNNRPS,SSNDPSGFQVF,3.18,1 of 3
EGKSLRYYYAN,KKNNRPS,SLRDSSGFQVF,4.51,1 of 3

For reference, the parent read 2.31 as the reference entry and 2.25 as a member of this library.